Target: Tubulin (Sus scrofa) (UniProt P02554+P02550)
Assay: Induction of porcine brain tubulin polymerization assessed as time required to reach maxium effect at 3 uM measured every 2 mins for 1 hr by fluorescence analysis in presence of GTP

Amino acid sequences for entries named in this document (tags omitted).
UniProt P02554, whole entry, looked up: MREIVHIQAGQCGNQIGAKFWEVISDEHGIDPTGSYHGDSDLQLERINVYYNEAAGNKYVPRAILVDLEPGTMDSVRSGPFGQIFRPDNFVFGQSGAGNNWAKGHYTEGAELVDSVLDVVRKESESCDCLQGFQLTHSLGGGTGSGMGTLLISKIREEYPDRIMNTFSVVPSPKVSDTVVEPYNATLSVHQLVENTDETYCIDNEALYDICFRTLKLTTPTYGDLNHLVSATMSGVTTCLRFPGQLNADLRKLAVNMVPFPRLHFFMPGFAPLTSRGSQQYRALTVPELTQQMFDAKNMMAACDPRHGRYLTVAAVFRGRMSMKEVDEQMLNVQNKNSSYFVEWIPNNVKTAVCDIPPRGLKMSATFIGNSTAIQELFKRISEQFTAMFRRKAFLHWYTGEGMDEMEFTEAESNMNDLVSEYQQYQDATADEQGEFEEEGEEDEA
UniProt P02550, whole entry, looked up: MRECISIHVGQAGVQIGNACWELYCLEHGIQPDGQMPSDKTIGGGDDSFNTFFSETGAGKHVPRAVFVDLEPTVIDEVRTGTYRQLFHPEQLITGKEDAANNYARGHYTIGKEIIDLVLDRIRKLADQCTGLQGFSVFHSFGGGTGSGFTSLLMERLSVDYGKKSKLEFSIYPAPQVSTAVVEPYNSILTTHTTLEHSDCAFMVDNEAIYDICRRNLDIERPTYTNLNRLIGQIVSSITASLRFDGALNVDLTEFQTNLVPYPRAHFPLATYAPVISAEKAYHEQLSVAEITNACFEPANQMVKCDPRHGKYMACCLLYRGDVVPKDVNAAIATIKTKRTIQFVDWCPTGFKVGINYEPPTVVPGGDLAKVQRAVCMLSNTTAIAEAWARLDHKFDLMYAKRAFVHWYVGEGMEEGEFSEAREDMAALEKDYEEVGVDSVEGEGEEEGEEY

Work on `CC(=O)O[C@H]1C(=O)[C@@]2(C)[C@H]([C@H](OC(=O)c3ccccc3)[C@]3(O)C[C@H](OC(=O)[C@H](O)[C@@H](NC(=O)c4ccccc4)c4ccccc4)C(C)=C1C3(C)C)[C@]1(OC(C)=O)CO[C@@H]1C[C@@H]2O` [PACLITAXEL] yielded a TIME of 0.267 h.

From ChEMBL document CHEMBL3804770, “Far-Red Light-Activatable Prodrug of Paclitaxel for the Combined Effects of Photodynamic Therapy and Site-Specific Paclitaxel Chemotherapy” (J Med Chem, 2016)
